Reference: article PMC9132451 (Science Advances, 2022)

Biological target: T1, GST-tagged ubiquitin (UniProt P0CG47 1-76)
T1 construct: ubiquitin (the cut product of the ubiquitin precursors); also called GST-ubiquitin; source: bought: Boston Biochem, catalog no; U-540
Test: pull-down; in vitro binding: 5 μg recombinant purified GST or GST-fusion protein (on beads) with 5 μg His-fusion protein in 300 μl 20 mM HEPES pH 7.4, 100 mM NaCl, 2 mM MgCl2, 0.1% saponin, 1 hour, 4°C; immunoblotting with GST- and His-tag antibodies
Details: both partners purified

B1: His-tagged ANTH domain of HIP1 (domain or fragment, Homo sapiens, UniProt O00291 1-314, looked up)
chain: MDRMASSMKQVPNPLPKVLSRRGVGAGLEAAERESFERTQTVSINKAINTQEVAVKEKHARTCILGTHHEKGAQTFWSVVNRLPLSSNAVLCWKFCHVFHKLLRDGHPNVLKDSLRYRNELSDMSRMWGHLSEGYGQLCSIYLKLLRTKMEYHTKNPRFPGNLQMSDRQLDEAGESDVNNFFQLTVEMFDYLECELNLFQTVFNSLDMSRSVSVTAAGQCRLAPLIQVILDCSHLYDYTVKLLFKLHSCLPADTLQGHRDRFMEQFTKLKDLFYRSSNLQYFKRLIQIPQLPENPPNFLRASALSEHISPVVVI
notes: HIP1 ANTH domain, Homo sapiens, amino acids 1 to 314, in pET-28a(+); also called HIP1-ANTH domain
  binding result: binds
